Data reported in patent publication US9139523B2, “5-HT2B receptor antagonists” (Janssen Pharmaceutica, NV, priority 2010, dated 2015).

The chains behind the UniProt entries cited, without tags or fusion partners. Where a name states a change or a piece, a line headed by the entry shows the natural chain unless it says otherwise.
UniProt Q12809: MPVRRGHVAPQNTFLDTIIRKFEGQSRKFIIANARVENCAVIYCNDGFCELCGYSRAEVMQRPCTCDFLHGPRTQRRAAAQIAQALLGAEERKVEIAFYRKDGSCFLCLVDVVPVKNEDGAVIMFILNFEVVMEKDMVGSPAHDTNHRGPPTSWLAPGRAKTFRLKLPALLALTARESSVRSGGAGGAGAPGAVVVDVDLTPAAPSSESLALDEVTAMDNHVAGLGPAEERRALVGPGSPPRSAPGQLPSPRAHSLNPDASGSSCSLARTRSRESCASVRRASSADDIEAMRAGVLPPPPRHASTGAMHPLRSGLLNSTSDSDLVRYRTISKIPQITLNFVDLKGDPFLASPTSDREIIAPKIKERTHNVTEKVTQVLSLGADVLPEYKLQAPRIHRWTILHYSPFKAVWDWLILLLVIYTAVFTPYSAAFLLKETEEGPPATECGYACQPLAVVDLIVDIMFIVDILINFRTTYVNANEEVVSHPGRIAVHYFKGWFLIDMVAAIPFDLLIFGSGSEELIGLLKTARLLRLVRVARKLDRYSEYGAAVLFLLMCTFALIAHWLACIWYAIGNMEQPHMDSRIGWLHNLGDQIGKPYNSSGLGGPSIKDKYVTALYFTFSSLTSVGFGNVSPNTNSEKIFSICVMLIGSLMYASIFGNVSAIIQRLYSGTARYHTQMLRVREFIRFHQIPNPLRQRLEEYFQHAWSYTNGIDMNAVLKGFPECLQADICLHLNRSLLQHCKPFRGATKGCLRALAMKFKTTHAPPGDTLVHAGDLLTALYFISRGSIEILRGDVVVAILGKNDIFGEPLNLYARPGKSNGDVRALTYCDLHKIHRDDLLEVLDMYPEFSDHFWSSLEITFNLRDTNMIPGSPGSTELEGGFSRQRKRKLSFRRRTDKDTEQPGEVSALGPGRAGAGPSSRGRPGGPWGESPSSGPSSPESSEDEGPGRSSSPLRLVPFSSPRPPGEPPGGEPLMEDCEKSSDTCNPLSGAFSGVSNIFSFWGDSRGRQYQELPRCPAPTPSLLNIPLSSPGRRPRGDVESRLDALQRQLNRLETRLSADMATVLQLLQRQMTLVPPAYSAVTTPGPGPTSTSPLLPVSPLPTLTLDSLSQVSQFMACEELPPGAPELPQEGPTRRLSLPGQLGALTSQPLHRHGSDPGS

Target: T1, hERG potassium channel (Homo sapiens, UniProt Q12809)
T1 construct: expressed in transfected cells; host or cells: HEK293
Experiment: hERG-transfected HEK293 cells using a Patch Express apparatus
Assay type: cell-based
Details: 5 min, pH 7.4
Protocol: Experiments were performed using HEK293 cells stably expressing the hERG potassium channel. Cells were grown at 37° C. and 5% CO2 in culture flasks in MEM Medium supplemented with 10% heat-inactivated fetal bovine serum, 1% L-Glutamine-Penicillin-Streptomycin-solution, 1% non-essential amino acids (100×), 1% sodium pyruvate (100 mM) and 0.8% Geneticin (50 mg/ml). Before use the cells were subcultured in MEM medium in the absence of 5 ml L-Glutamine-Penicillin-Streptomycin. For use in the automated patch-clamp system PatchXpress 7000A (Axon Instruments) cells were harvested to obtain cell suspension of single cells. […]
Patch-clamp experiments were performed in the voltage-clamp mode and whole-cell currents were recorded with an automated patch-clamp assay utilizing the PatchXpress 7000A system (Axon Instruments). Current signals were amplified and digitized by a Multiclamp amplifier, stored and analyzed by using the PatchXpress, DataXpress software and Igor 5.0 (Wavemetrics).
The holding potential was −80 mV. The hERG current (K+-selective outward current) was determined as the maximal tail current at −40 mV after a 2 second depolarization to +60 mV. […]
Each concentration of the test substance was applied twice. The effect of each concentration was determined after 5 min as an average current of 3 sequential voltage pulses. […]

SMILES: COc1cc(N)c(Cl)cc1C(=O)NC1CCN(CCCOc2ccc(F)cc2)CC1OC (centres unmarked) [Cisapride, reference compound]
- % block of the hERG channel (100 nM): 80 (7) %
- % block of the hERG channel (300 nM): 95 (15) %
